Source: PubChem BioAssay AID651702 (NMMLSC, 2012)
Only a part is listed here, and it is no random draw. Calls of active or inactive are those of the source.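 The calls were made as follows: active = inhibition above about 55% (limit read from the data); inconclusive = no clear call, values can overlap the other calls; inactive = the rest.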

assay: LAMP-1 surface exposure blockers, TALL-104 cells – cell-based, flow cytometry, MLPCN library, primary screen (AID 651702); conditions: TALL-104 LAMP-1 surface exposure, at 10 µM, active compounds read high, cells stimulated with thapsigargin and PMA

With `O=[N+]([O-])C1C(O)C(O)C([N+](=O)[O-])C(O)C1O` (stereo unspecified) as the compound, how does the inhibition read?
The inhibition was inactive: -7.2%.

Which inhibition does the source give for `O=C(NC(Sc1ccncn1)C(Cl)(Cl)Cl)c1ccccc1` (stereo unspecified) here?
The inhibition was inactive: -2.1%.

With `Oc1ccccc1CNc1ccccn1` as the compound, how does the inhibition read?
The inhibition was inactive: 2.5%.

Which inhibition does the source give for `Nc1cc(N)c2nonc2c1[N+](=O)[O-]` here?
The inhibition was inactive: 2.4%.

With `CC(C)CC(=O)NC(Sc1ccc(Cl)cc1)C(Cl)(Cl)Cl` (stereo unspecified) as the compound, how does the inhibition read?
The inhibition was inactive: -2.9%.

With `CN1CCCC(OC(=O)C(c2ccccc2)c2ccccc2)C1` (stereo unspecified) as the compound, how does the inhibition read?
Its inhibition is inactive: 0.3%.

For `Clc1ccc(Cl)c(NC2=NCC(CBr)S2)c1` (stereo unspecified), which inhibition is on record?
Its inhibition is inactive: -3%.

With `Cc1ccc(OP(=O)(Nc2nccs2)Oc2ccc(C)cc2)cc1` as the compound, how does the inhibition read?
Its inhibition is inactive: -3.2%.

Which inhibition does the source give for `COc1ccccc1OP(=O)(Nc1ccc(C)cn1)Oc1ccccc1OC` here?
The inhibition was inactive: 2%.

For `Cc1ccc(N/C(=N/P(=O)(N2CCOCC2)N2CCOCC2)N2CCOCC2)cc1`, which inhibition is on record?
The inhibition was inactive: -3.1%.

For `CN(C(=O)Cc1ccc(Cl)c(Cl)c1)[C@H]1CCCC[C@H]1N1CCCC1`, which inhibition is on record?
Its inhibition is inactive: 0.4%.

For `NC(=O)c1cc([N+](=O)[O-])cc([N+](=O)[O-])c1N`, which inhibition is on record?
The inhibition was inactive: -4.3%.

With `Nc1cccc2ccc([As](=O)(O)O)cc12` as the compound, how does the inhibition read?
The inhibition was inactive: 2.6%.

For `CCN(N=Nc1nonc1N)c1nonc1N`, which inhibition is on record?
The inhibition was inactive: 0.4%.

For `Cc1ccc(NP(=O)(Oc2ccccc2F)Oc2ccccc2F)nc1`, which inhibition is on record?
Its inhibition is inactive: -12.3%.

With `CN(C(=O)Cc1ccc(Cl)c(Cl)c1)[C@H]1CCCC[C@@H]1N1CCCC1` as the compound, how does the inhibition read?
Its inhibition is inactive: -1.3%.

For `Cc1cc(SC(NC(=O)c2ccc(F)cc2)C(Cl)(Cl)Cl)ncn1` (stereo unspecified), which inhibition is on record?
The inhibition was inactive: -0.2%.

Which inhibition does the source give for `CCOP(=O)(Nc1ccccc1)OCC` here?
The inhibition was inactive: -2.7%.

Which inhibition does the source give for `O=P(Nc1nc2ccc(Cl)cc2s1)(c1ccccc1)c1ccccc1` here?
The inhibition was inactive: 1.5%.

For `CN(C)P(=O)(N(C)C)n1c(Nc2ccccc2)nnc1-c1ccccc1`, which inhibition is on record?
Its inhibition is inactive: -2.3%.

For `CCCC1OP(N)(=O)OCC1CC` (stereo unspecified), which inhibition is on record?
The inhibition was inactive: 8.7%.

For `CC(=O)Nc1ccc([As](=O)(O)O)cc1`, which inhibition is on record?
Its inhibition is inactive: 9.6%.

For `O=C(O)c1ccccc1[As](=O)(O)O`, which inhibition is on record?
Its inhibition is inactive: -6%.

For `O=C(O)CNc1ccc([As](=O)(O)O)cc1`, which inhibition is on record?
The inhibition was inactive: -2.9%.

Which inhibition does the source give for `COC(=O)C1(C)COP(=O)(Nc2ccccc2)OC1` (stereo unspecified) here?
The inhibition was inactive: -4.8%.

Which inhibition does the source give for `O=[N+]([O-])c1cccc(NC2=NCC(CBr)S2)c1` (stereo unspecified) here?
The inhibition was inactive: 2.8%.

Which inhibition does the source give for `O=[N+]([O-])c1ncn(CCn2ncnc2[N+](=O)[O-])n1` here?
Its inhibition is inactive: -0.9%.

For `CC(C)(C)C(=O)NC(Sc1ccncn1)C(Cl)(Cl)Cl` (stereo unspecified), which inhibition is on record?
The inhibition was inactive: -0.8%.

With `O=C(Nc1cc([As](=O)(O)O)ccc1O)c1ccccc1` as the compound, how does the inhibition read?
Its inhibition is inactive: -6.4%.

For `O=P1(N(CCCl)CCCl)OCCCS1` (stereo unspecified), which inhibition is on record?
Its inhibition is inactive: -1.1%.

For `CC1CCN(C(=O)Oc2c(Cl)cc(Cl)c3cccnc23)CC1`, which inhibition is on record?
The inhibition was inactive: -2.4%.

For `c1cc(-c2nn[nH]n2)ccc1-c1nn[nH]n1`, which inhibition is on record?
The inhibition was inactive: 6.1%.

With `CN(C)C(=O)OCCc1n(C)cc[n+]1C` as the compound, how does the inhibition read?
Its inhibition is inactive: 3.4%.

Which inhibition does the source give for `CC(C)c1nc(Nc2ccccc2)n(P(=O)(N(C)C)N(C)C)n1` here?
Its inhibition is inactive: 6.5%.

For `CC(C)=N/N=C(\N)N[N+](=O)[O-]`, which inhibition is on record?
Its inhibition is inactive: -2.4%.

Which inhibition does the source give for `CCN(/C(=N/P(=O)(N1CCOCC1)N1CCOCC1)N1CCOCC1)c1ccc(OC)cc1` here?
Its inhibition is inactive: 1.9%.

With `C[N+]1=C2C=CC=CC=C2SC12C([N+](=O)[O-])=CC([N+](=O)[O-])=C[C-]2[N+](=O)[O-]` (stereo unspecified) as the compound, how does the inhibition read?
The inhibition was active: 74.8%.

With `Nc1ccc([As](=O)(O)c2ccc(N)cc2)cc1` as the compound, how does the inhibition read?
Its inhibition is inactive: -7%.

With `CCc1nc2c(n1)c1c(non1O)c1c2no[n+]1[O-]` as the compound, how does the inhibition read?
The inhibition was inactive: 4.3%.

Which inhibition does the source give for `O=[N+]([O-])c1cc([N+](=O)[O-])c(CCNc2ccccc2)c([N+](=O)[O-])c1` here?
Its inhibition is inactive: -2.1%.

With `Cc1ccc(NP(=O)(Oc2ccccc2)Oc2ccccc2)nc1` as the compound, how does the inhibition read?
Its inhibition is inactive: -1.9%.

Which inhibition does the source give for `O=[N+]([O-])c1cccc2n[nH]nc12` here?
Its inhibition is inactive: 3.2%.

Which inhibition does the source give for `CC(=O)N1C2C3N(C(C)=O)C1C1N(C(C)=O)C(C(N1C(C)=O)N3C(C)=O)N2C(C)=O` here?
The inhibition was inactive: -0.8%.

For `COc1ccc(C2=NCC(CBr)S2)cc1` (stereo unspecified), which inhibition is on record?
Its inhibition is active: 94.1%.

Which inhibition does the source give for `c1nnnn1CCn1cnnn1` here?
The inhibition was inactive: -2.6%.

With `CC(C)C(=O)NC(Sc1ccccc1)C(Cl)(Cl)Cl` (stereo unspecified) as the compound, how does the inhibition read?
Its inhibition is inactive: -3.2%.

With `O=P(Nc1nccs1)(c1ccccc1)c1ccccc1` as the compound, how does the inhibition read?
Its inhibition is inactive: -2.4%.

For `O=C(OC1CN2CCC1CC2)c1cccc(Cl)c1` (stereo unspecified), which inhibition is on record?
Its inhibition is inactive: 3.7%.

Which inhibition does the source give for `C(Cc1nn[nH]n1)Cc1nn[nH]n1` here?
The inhibition was inactive: 0.3%.

For `Nc1ccc([As](=O)(O)c2ccc([N+](=O)[O-])cc2)cc1`, which inhibition is on record?
Its inhibition is inactive: 0.9%.

With `O=[As](O)(c1ccccc1)c1ccc(O)cc1` as the compound, how does the inhibition read?
Its inhibition is inactive: 0.8%.

Which inhibition does the source give for `O=[N+]([O-])c1ccc(O)c(/C=N/Nc2ccc([N+](=O)[O-])cc2[N+](=O)[O-])c1` here?
The inhibition was inactive: 9.4%.

Which inhibition does the source give for `O=[N+]([O-])c1ncn(CCn2cnc([N+](=O)[O-])n2)n1` here?
The inhibition was inactive: -0.3%.

Which inhibition does the source give for `CC(=O)NC(SC(=S)N(C)C)C(Cl)(Cl)Cl` (stereo unspecified) here?
The inhibition was inactive: 3.6%.

With `C[C@H]1OP(=O)(Oc2ccccc2)[C@H](O)[C@H](O)[C@H]1N=[N+]=[N-]` (stereo partly specified) as the compound, how does the inhibition read?
Its inhibition is inactive: 6.3%.

Which inhibition does the source give for `O=P(Nc1nc2ccccc2s1)(c1ccccc1)c1ccccc1` here?
Its inhibition is inactive: 5.3%.

With `O=P(Nc1ccccn1)(c1ccc(Br)cc1)c1ccc(Br)cc1` as the compound, how does the inhibition read?
The inhibition was inactive: -0.7%.

With `CN(C)C1(CNC(=O)c2ccc(Cl)c(S(N)(=O)=O)c2)CCCCC1` as the compound, how does the inhibition read?
The inhibition was inactive: -4.2%.

With `COc1ccc(N)c([N+](=O)[O-])c1[N+](=O)[O-]` as the compound, how does the inhibition read?
Its inhibition is inactive: -1.5%.

For `Nc1ccc(CCCCOc2ccccc2)cc1`, which inhibition is on record?
Its inhibition is inactive: 1.3%.

Which inhibition does the source give for `O=c1c2cc([N+](=O)[O-])ccc2[nH]c2c([N+](=O)[O-])cc([N+](=O)[O-])cc12` here?
Its inhibition is active: 68.8%.

With `CN(C)C(=O)Oc1noc2ccccc12` as the compound, how does the inhibition read?
Its inhibition is inactive: -4.9%.

For `CC(NC(=O)COC(=O)C(O)(c1ccccc1)c1ccccc1)c1ccccc1` (stereo unspecified), which inhibition is on record?
Its inhibition is inactive: 0.3%.

For `Cc1ccccc1OP(=O)(Nc1ccccn1)Oc1ccccc1C`, which inhibition is on record?
Its inhibition is inactive: 0.1%.

Which inhibition does the source give for `CCC(=O)N1C2C3N(C(=O)CC)C1C1N(C(=O)CC)C(C(N1C(=O)CC)N3C(=O)CC)N2C(=O)CC` here?
The inhibition was inactive: -0.4%.

For `O=C(OC1CN2CCC1CC2)c1ccccc1` (stereo unspecified), which inhibition is on record?
The inhibition was inactive: -14.9%.
